Source: patent publication US7517517B2 (Janssen Pharmaceutica N.V., priority 2002, dated 2009)

Sequences of proteins named here, by UniProt entry; tags and fusion partners are left off. Residues count along the entry.
UniProt P23385, 19-1199: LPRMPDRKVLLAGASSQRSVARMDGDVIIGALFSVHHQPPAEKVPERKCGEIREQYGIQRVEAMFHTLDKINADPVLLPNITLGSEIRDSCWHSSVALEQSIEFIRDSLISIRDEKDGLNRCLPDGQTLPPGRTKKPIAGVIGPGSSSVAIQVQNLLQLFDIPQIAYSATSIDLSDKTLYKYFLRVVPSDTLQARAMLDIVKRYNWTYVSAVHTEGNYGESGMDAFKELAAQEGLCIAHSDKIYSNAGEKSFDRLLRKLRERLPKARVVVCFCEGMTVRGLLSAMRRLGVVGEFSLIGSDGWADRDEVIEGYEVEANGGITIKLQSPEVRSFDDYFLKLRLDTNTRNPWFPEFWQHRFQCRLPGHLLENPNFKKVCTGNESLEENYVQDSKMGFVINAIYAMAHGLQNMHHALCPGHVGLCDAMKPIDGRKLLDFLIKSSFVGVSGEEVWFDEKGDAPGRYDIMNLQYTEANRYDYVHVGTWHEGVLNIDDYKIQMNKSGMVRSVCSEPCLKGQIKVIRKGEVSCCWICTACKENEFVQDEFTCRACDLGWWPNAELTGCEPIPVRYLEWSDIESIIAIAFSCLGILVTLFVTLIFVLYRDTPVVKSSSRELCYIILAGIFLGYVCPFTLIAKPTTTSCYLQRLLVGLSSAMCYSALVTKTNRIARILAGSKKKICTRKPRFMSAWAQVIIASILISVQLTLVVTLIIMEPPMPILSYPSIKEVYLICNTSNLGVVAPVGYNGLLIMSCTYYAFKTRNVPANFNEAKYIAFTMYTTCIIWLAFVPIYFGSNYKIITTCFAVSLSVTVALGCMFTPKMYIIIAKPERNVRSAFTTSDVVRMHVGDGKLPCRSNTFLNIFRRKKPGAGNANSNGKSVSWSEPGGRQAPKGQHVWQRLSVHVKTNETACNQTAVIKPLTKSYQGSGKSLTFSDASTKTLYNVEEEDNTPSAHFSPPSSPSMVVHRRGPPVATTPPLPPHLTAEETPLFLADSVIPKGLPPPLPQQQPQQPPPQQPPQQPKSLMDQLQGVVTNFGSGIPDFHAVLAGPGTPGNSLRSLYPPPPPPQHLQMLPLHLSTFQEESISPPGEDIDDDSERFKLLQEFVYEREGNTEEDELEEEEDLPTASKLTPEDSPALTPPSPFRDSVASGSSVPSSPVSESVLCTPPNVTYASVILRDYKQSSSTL

Legend:
rat mGlu1a receptor [1] = target: T1, rat mGlu1a receptor (Rattus norvegicus, UniProt P23385); assay: [3H]Compound A binding to rat mGlu1a receptor CHO-dhfr− membranes (saturation, kinetics, inhibition)
T1 construct: host or cells: CHO-dhfr- cells

rat mGlu1a receptor [2] = target: T1, rat mGlu1a receptor; assay: [3H]quisqualate binding to rat mGlu1a receptor CHO-dhfr− membranes (saturation, inhibition)
[3] = target: T2, cloned rat mGlu1 receptor (Rattus norvegicus, UniProt P23385); assay: Signal transduction at the cloned rat mGlu1 receptor in CHO cells (glutamate-induced Ca2+ rise, FLIPR); type: cell-based
T2 construct: expressed in transfected cells; host or cells: CHO cells

[4] = 50% inhibition of the glutamate-induced intracellular Ca2+ rise, CHO cells, FLIPR
[5] = inhibition of glutamate-induced intracellular Ca2+ rise, CHO cells expressing mGlu1 receptor, compounds with pIC50 between 7 and 8

N[C@@]1(C(=O)O)CC[C@@H](C(=O)O)C1 [1S,3R-ACPD, reference compound]
Ki (rat mGlu1a receptor [1]; 2.5 nM [3H]Compound A, 30 min at 4° C., mean ± SD of 3–4 experiments, read-out: Ki (nM), inhibition of [3H]Compound A-binding): > 1e+06 nM | Ki (rat mGlu1a receptor [2]; inhibition of [3H]quisqualate binding, rat mGlu1a receptor CHO-dhfr− membranes, mean ± SD of 2 experiments, read-out: Ki): 1.92 ± 0.2 µM

CCc1cc2cc(C(=O)C3CCC(OC)CC3)ccc2nc1F (stereo not drawn) [Compound 19]
IC50 [3, 4]: 0.00417 µM

CCCc1ccc2cc(C(=O)C3CCC(OC)CC3)ccc2n1 (stereo not drawn) [Compound 114]
IC50 [3, 4]: 0.00525 µM

CCc1cc2cc(C(=O)[C@H]3CC[C@@H](O)CC3)ccc2nc1C [Compound 182]
IC50 [3, 5]: 0.0186 µM

COC1CCC(C(=O)c2ccc3nc4c(cc3c2)CCCN4C)CC1 (stereo not drawn) [Compound 208]
IC50 [3, 4]: 0.00804 µM

CCCc1ccc2cc(C(=O)[C@H]3CC[C@H](OC)CC3)ccc2n1 [Compound 229]
IC50 [3, 5]: 0.0389 µM

N[C@@H](Cn1oc(=O)[nH]c1=O)C(=O)O [quisqualate, reference compound]
Ki (rat mGlu1a receptor [1]): > 1e+06 nM | Ki (rat mGlu1a receptor [2]): 0.03 µM
